# Measurements from PMC10516900.
# Assays:
# [1] = target: cUSP47CD^C97S (Caenorhabditis elegans); assay: ITC; ITC200, 25 °C; 500 µM monoubiquitin (1 mM for cUSP47CD^H178F and cUSP47CD^H178A) titrated into ~25–30 µM USP47 protein in the cell; 20 mM HEPES pH 7.4, 100 mM NaCl; one-site model, singlicate dataset
# [2] = target: cUSP47CD^C97SΔ236-248 (Caenorhabditis elegans); assay: as above
substance,measurement,setting,value
ubiquitin (from UniProt P0CG48 1-76) (natural protein),stoichiometry N,[1],1
same,Kd,[2],2700 nM
